# Test results as given in PubChem BioAssay AID485360 (National Center for Advancing Translational Sciences (NCATS), 2010).
# The chains behind the UniProt entries cited, without tags or fusion partners. Where a name states a change or a piece, a line headed by the entry shows the natural chain unless it says otherwise.
# UniProt Q9Y468: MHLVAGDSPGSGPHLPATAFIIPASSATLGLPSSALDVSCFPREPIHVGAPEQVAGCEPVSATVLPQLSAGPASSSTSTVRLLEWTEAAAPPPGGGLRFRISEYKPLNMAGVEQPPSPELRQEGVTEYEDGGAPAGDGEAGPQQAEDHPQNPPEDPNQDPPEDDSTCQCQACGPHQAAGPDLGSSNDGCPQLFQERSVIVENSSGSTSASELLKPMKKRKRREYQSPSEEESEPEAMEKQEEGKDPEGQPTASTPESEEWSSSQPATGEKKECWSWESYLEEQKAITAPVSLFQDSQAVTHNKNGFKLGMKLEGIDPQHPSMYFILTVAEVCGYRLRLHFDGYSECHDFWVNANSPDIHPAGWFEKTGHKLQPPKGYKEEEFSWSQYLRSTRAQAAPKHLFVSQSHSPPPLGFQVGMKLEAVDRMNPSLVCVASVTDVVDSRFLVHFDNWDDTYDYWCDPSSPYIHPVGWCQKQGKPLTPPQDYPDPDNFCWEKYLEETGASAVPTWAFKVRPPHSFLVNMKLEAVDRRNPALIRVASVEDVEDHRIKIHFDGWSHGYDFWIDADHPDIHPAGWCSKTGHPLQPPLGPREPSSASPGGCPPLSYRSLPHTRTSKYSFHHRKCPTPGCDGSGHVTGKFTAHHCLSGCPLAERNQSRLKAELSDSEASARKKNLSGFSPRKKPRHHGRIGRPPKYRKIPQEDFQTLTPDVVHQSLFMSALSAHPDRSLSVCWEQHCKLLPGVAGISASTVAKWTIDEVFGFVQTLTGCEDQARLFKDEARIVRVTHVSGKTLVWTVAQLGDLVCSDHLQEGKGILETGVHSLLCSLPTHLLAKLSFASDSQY
# Only a part is listed here, and it is no random draw. Results filed as inconclusive are left out. Active and inactive are the calls of the source. Calls come from the whole dose curve; as a rule, active = well fitted inhibition curve with a large enough effect; inconclusive = small, poorly fitted or top-dose-only effect; inactive = no such curve, though single readings can be large or run the other way.
# Biological target: Lethal(3)malignant brain tumor-like protein 1 (Homo sapiens) (UniProt Q9Y468)
# Assay: qHTS Assay for the Inhibitors of L3MBTL1; note: nearly all actives have a fitted effect of over 60% in size
# Details: AlphaScreen L3MBTL1–H3K9me1 peptide binding; series mostly up to 57.1 µM; activity, negative = inhibition: at the top concentration
# % is set by controls: 0 for no effect and ±100 for the full control effect; potency is the fitted concentration of half-maximal effect.
Structure (SMILES),"activity, negative = inhibition",Potency
O=P(Nc1ccccn1)(c1ccc(Br)cc1)c1ccc(Br)cc1,inactive: -1.06%,
O=P(Nc1nc2ccccc2s1)(c1ccccc1)c1ccccc1,inactive: -4.78%,
O=[As](O)(c1ccccc1)c1ccc(O)cc1,inactive: -1.94%,
CC(=O)NC(SC(=S)N(C)C)C(Cl)(Cl)Cl (stereo unspecified),inactive: 8.36%,
O=[N+]([O-])c1ccc(O)c(/C=N/Nc2ccc([N+](=O)[O-])cc2[N+](=O)[O-])c1,inactive: -24.2%,
C(Cc1nn[nH]n1)Cc1nn[nH]n1,inactive: 33.7%,
Nc1ccc([As](=O)(O)c2ccc([N+](=O)[O-])cc2)cc1,inactive: 2.24%,
CCOc1ccc(C2=NCC(CBr)S2)cc1 (stereo unspecified),inactive: -9.14%,
Cc1ccccc1CN(C)C(=O)COC(=O)C(O)(c1ccccc1)c1ccccc1,inactive: 2.84%,
CC(=O)Nc1ccc([As](=O)(O)O)c(O)c1,inactive: 4.48%,
CC(=O)Nc1ccc(Oc2c([N+](=O)[O-])cc([N+](=O)[O-])cc2[N+](=O)[O-])cc1,inactive: 5.87%,
c1ccc(-c2nn[nH]n2)c(-c2nn[nH]n2)c1,inactive: 109%,
Cc1ccc(NP(=O)(Oc2cccc(C)c2)Oc2cccc(C)c2)nc1,inactive: 6.26%,
CCOC(=O)NC(Sc1ccccc1)C(Cl)(Cl)Cl (stereo unspecified),inactive: 3.92%,
O=C(NC1CCS(=O)(=O)C1)NP(=S)(Oc1ccccc1)Oc1ccccc1 (stereo unspecified),inactive: -0.425%,
CCNC(=S)/N=C(\N)N[N+](=O)[O-],inactive: 13.6%,
CCC(=O)N1C2C3N(C(=O)CC)C1C1N(C(=O)CC)C(C(N1C(=O)CC)N3C(=O)CC)N2C(=O)CC,inactive: 6.11%,
COC(=O)c1cc2c(s1)N=C(c1ccccc1)N(C)P2(=O)N1CCOCC1 (stereo unspecified),inactive: 3.81%,
CC(=O)NC(SC(=S)N(CC(C)C)CC(C)C)C(Cl)(Cl)Cl (stereo unspecified),inactive: -15.7%,
Cc1ccc(OP(=O)(Nc2ccccn2)Oc2ccc(C)cc2)cc1,inactive: -2.81%,
CC(NC(=O)COC(=O)C(O)(c1ccccc1)c1ccccc1)c1ccccc1 (stereo unspecified),inactive: -1.49%,
Cc1ccccc1OP(=O)(Nc1ccccn1)Oc1ccccc1C,inactive: 3.4%,
CN(C)C(=O)Oc1noc2ccccc12,inactive: 8.14%,
O=P(Nc1nc2ccc(Cl)cc2s1)(c1ccccc1)c1ccccc1,inactive: -12.2%,
CC(=O)Nc1ccc([As](=O)(O)O)cc1,inactive: -20.5%,
O=C(O)c1ccccc1[As](=O)(O)O,inactive: 11%,

Structure (SMILES),"activity, negative = inhibition",Potency
Cc1cc(SC(NC(=O)c2ccc(F)cc2)C(Cl)(Cl)Cl)ncn1 (stereo unspecified),inactive: 3.23%,
CCOP(=O)(Nc1ccccc1)OCC,inactive: 5%,
Cc1ccc(NP(=O)(Oc2ccccc2F)Oc2ccccc2F)nc1,inactive: 1.95%,
Nc1cccc2ccc([As](=O)(O)O)cc12,,active: 28.2 µM
CCN(N=Nc1nonc1N)c1nonc1N,inactive: 7.37%,
CN(C(=O)Cc1ccc(Cl)c(Cl)c1)[C@H]1CCCC[C@H]1N1CCCC1,inactive: -2.43%,
Cc1ccc(N/C(=N/P(=O)(N2CCOCC2)N2CCOCC2)N2CCOCC2)cc1,inactive: 7.64%,
NC(=O)c1cc([N+](=O)[O-])cc([N+](=O)[O-])c1N,inactive: 23%,
CN1CCCC(OC(=O)C(c2ccccc2)c2ccccc2)C1 (stereo unspecified),inactive: -4.34%,
COc1ccccc1OP(=O)(Nc1ccc(C)cn1)Oc1ccccc1OC,inactive: 6.74%,
Cc1ccc(OP(=O)(Nc2nccs2)Oc2ccc(C)cc2)cc1,inactive: -0.792%,
O=C(NC(Sc1ccncn1)C(Cl)(Cl)Cl)c1ccccc1 (stereo unspecified),inactive: -3.13%,
Cc1c2non([O-])c-2c(C)[n+](=O)[n+]1[O-],inactive: -3.49%,
CC(C)CC(=O)NC(Sc1ccc(Cl)cc1)C(Cl)(Cl)Cl (stereo unspecified),inactive: 20.8%,
COc1ccc(C2=NCC(CBr)S2)cc1 (stereo unspecified),inactive: 25.1%,
CCc1nc2c(n1)c1c(non1O)c1c2no[n+]1[O-],,active: 5.01 µM
CC(=O)N1C2C3N(C(C)=O)C1C1N(C(C)=O)C(C(N1C(C)=O)N3C(C)=O)N2C(C)=O,inactive: 1.52%,
CCN(/C(=N/P(=O)(N1CCOCC1)N1CCOCC1)N1CCOCC1)c1ccc(OC)cc1,inactive: 17.3%,
Nc1ccc([As](=O)(O)c2ccc(N)cc2)cc1,inactive: 13.9%,
CC1CCN(C(=O)Oc2c(Cl)cc(Cl)c3cccnc23)CC1,inactive: 7.73%,
CC(C)=N/N=C(\N)N[N+](=O)[O-],inactive: 34.7%,
CN(C)C(=O)OCCc1n(C)cc[n+]1C,inactive: 11%,
O=C(Nc1cc([As](=O)(O)O)ccc1O)c1ccccc1,inactive: -11.1%,
O=[N+]([O-])c1ncn(CCn2ncnc2[N+](=O)[O-])n1,inactive: 7.98%,
O=C(O)CNc1ccc([As](=O)(O)O)cc1,inactive: -0.0957%,
O=[N+]([O-])c1cccc(NC2=NCC(CBr)S2)c1 (stereo unspecified),inactive: -2.98%,

Structure (SMILES),"activity, negative = inhibition",Potency
CCOC(=O)Nc1ccc([As](=O)(O)O)c(O)c1,inactive: -0.108%,
Cc1cc(SC(NC(=O)c2ccccc2)C(Cl)(Cl)Cl)nc(C(C)C)n1 (stereo unspecified),inactive: 7.72%,
CCOC(=O)Nc1cccc([As](=O)(O)O)c1,inactive: -2%,
Cc1cc(SC(NC=O)C(Cl)(Cl)Cl)ncn1 (stereo unspecified),inactive: -12.4%,
O=P(Nc1ccccn1)(c1cccc2ccccc12)c1cccc2ccccc12,inactive: -10.3%,
O=[N+]([O-])c1ccc(Nc2ccc(Oc3ccc([N+](=O)[O-])cc3[N+](=O)[O-])cc2)c([N+](=O)[O-])c1,inactive: -11.2%,
COP1(=S)c2c(C)nn(CCC#N)c2N=C(c2ccc(F)cc2)N1C (stereo unspecified),inactive: 4.76%,
O=C(COc1ccccc1)OC1CN2CCC1CC2 (stereo unspecified),inactive: 3.65%,
CCOC(=O)c1ccc(NC(=O)C(C)(CCl)SC)cc1 (stereo unspecified),inactive: 0.162%,
CCC(C)N(CC(C)C)C(=S)SC(NC(C)=O)C(Cl)(Cl)Cl (stereo unspecified),inactive: -35.8%,
Cc1c2c(nc3ccccc13)SC(C(Cl)Cl)C2 (stereo unspecified),inactive: 14.6%,
O=C(OC1CN2CCC1CC2)C12CC3CC(CC(C3)C1)C2 (stereo unspecified),inactive: -0.144%,
Cc1cc(=O)[nH]c(N[N+](=O)[O-])n1,inactive: 5.69%,
COc1ccc2nc(NP(=O)(c3ccccc3)c3ccccc3)sc2c1,inactive: 0.281%,
COc1cc(I)ccc1[As](=O)(O)O,inactive: 13.7%,
O=[As](O)(c1ccc(O)cc1)c1ccccc1O,inactive: 0.573%,
C[As](=O)(O)c1cccc(C(=O)O)c1,inactive: 6.97%,
Cc1ccc(OP(=O)(Nc2ccc([N+](=O)[O-])cn2)Oc2ccc(C)cc2)cc1,inactive: -0.77%,
Cc1ccc2nc3c(c(C)c2c1)CC(C(Cl)Cl)S3 (stereo unspecified),inactive: -4.75%,
ClCCSc1nnc(-c2cccnc2)o1,inactive: -14.8%,
CC(C)c1ccc(OP(=O)(Nc2ccccn2)Oc2ccccc2F)cc1 (stereo unspecified),inactive: -5.16%,
CC(C)NC(=O)NP(=O)(Oc1ccccc1)Oc1ccccc1,inactive: 0.669%,
CCN(CC)C(=S)SC(NC=O)C(Cl)(Cl)Cl (stereo unspecified),inactive: 5.44%,
O=[N+]([O-])c1cc([N+](=O)[O-])c(-c2ccn[nH]2)s1,inactive: -1.1%,
